pIC50: −log10 of the molar value. Like-named read-outs stand apart in the source and are kept apart here.
Key:
c-KIT kinase (uKIT) = c-KIT kinase (uKIT) (Homo sapiens (Human), UniProt P10721); test: Biochemical Assay for uKIT (coupled pyruvate kinase/lactate dehydrogenase assay); details: read-out: uKIT IC50; Inhibition of biochemical activity of uKIT kinase; 1 mM ATP
Ba/F3 KIT mutant cells = test: Ba/F3 mutant KIT Cell Proliferation Assays (resazurin)
Description: Ba/F3 KIT Mutant Cell Line Transduction and Expansion
Several different KIT cDNA encoding various primary and secondary mutations were cloned into a pLV(Exp]-CMV>(cDNA):IRES:puro vector. These vectors were constructed and packaged by VectorBuilder.
Exponentially grown Ba/F3 cells (1×10^6 cells in 1 ml medium) were infected with 60 μl of viral suspension in a 6-well plate in the presence of mIL-3 (10 ng/ml) and polybrene (7.5 μg/ml) (Vector Builder) and incubated for 16 h. After 16 h, the cells were centrifuged, and viral supernatant was discarded. The cells were then re-suspended in fresh medium and allowed to recover for another day. After 72 h post infection, the cells were seeded with complete medium with mIL-3 and with 1 μg/ml puromycin added to medium for selection. After 48 h, cells without viral infection die, whereas successfully transduced cells were collected and changed to fresh medium with 5 ng/ml of IL-3. After a week or two with gradual withdrawal of mIL3 the cells that can continue to proliferate in the absence of mIL3 were exponentially expanded and were frozen down for banking.
Ba/F3 mutant KIT Cell Proliferation Assays
(§1) A serial dilution of test compound was dispensed into a 384-well black clear bottom plate (Corning, Corning, NY). Six hundred and twenty-five cells were added per well in 50 μL complete growth medium. Plates were incubated for 68 h at 37° C., 5% CO2, 95% humidity. At the end of the incubation period 10 μL of a 440 μM solution of resazurin (Sigma, St. Louis, MO) in PBS was added to each well and incubated for an additional 5 h at 37° C., 5% CO2, 95% humidity. Plates were read on a Synergy2 reader (Biotek, Winooski, VT) using an excitation of 540 nm and an emission of 600 nm. Data was analyzed using Prism software (Graphpad, San Diego, CA) to calculate IC50 values.

By UniProt entry, the sequences of proteins in these tests, tags left out. Chains listed by the source or under a name are the forms on record and can include a tag or linker. Residues count along the entry.
UniProt P10721, 544-976 with tags or gaps limits assumed: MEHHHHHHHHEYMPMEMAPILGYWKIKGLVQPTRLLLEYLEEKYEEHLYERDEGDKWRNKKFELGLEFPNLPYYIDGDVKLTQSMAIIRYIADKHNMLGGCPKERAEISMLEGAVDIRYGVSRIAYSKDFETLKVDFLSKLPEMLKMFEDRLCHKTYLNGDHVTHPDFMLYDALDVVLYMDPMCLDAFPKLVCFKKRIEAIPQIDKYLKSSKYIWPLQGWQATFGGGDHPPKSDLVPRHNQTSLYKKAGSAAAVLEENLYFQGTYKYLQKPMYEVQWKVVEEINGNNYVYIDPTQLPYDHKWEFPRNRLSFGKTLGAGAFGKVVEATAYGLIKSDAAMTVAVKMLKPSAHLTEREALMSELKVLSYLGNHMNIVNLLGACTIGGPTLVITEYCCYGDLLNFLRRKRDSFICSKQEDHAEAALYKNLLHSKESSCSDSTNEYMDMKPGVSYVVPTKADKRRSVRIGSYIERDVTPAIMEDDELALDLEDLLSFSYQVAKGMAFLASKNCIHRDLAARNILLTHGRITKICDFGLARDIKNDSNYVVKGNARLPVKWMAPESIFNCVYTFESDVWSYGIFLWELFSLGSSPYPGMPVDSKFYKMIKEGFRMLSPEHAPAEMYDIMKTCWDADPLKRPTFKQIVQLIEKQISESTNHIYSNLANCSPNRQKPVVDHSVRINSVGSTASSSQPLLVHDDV

GIST 430 cells = test: GIST 430 Cell Proliferation Assay (resazurin); details: read-out: GIST430 IC50
Description: GIST 430 Cell Proliferation Assay
as §1, with “a 96-well” for “a 384-well”, “NY). Five thousand” for “NY). Six hundred and twenty-five”, “in 200” for “in 50”, “for 115” for “for 68”, “at 37 degrees Celsius,” for “at 37° C.,”, “period 40” for “period 10”

[1] = read-out: AYdup-D816G IC50, Ba/F3 KIT AYdup-D816G mutant cell proliferation
[2] = read-out: AYdup-V654A IC50, Ba/F3 KIT AYdup-V654A mutant cell proliferation
[3] = read-out: exon11del-V654A IC50, Ba/F3 KIT exon11del-V654A mutant cell proliferation
[4] = read-out: exon11del-Y823D IC50, Ba/F3 KIT exon11del-Y823D mutant cell proliferation

COCCOc1cc(F)c2c(Nc3ccc(NC(=O)NCCC(C)(C)C)nc3)ncnc2c1
pIC50 (c-KIT kinase (uKIT)): 7.00 to 8.00 | pIC50 (Ba/F3 KIT mutant cells; [1]): 6.00 to 7.00 | pIC50 (Ba/F3 KIT mutant cells; [2]): 6.00 to 7.00 | pIC50 (Ba/F3 KIT mutant cells; [3]): 6.00 to 7.00 | pIC50 (Ba/F3 KIT mutant cells; [4]): 6.00 to 7.00 | pIC50 (GIST 430 cells): 6.00 to 7.00

COCCOc1cc(F)c2c(Nc3ccc(NC(=O)NCCC4CCC4)cc3)ncnc2c1
pIC50 (c-KIT kinase (uKIT)): > 8.00 | pIC50 (Ba/F3 KIT mutant cells; [1]): > 8.00 | pIC50 (Ba/F3 KIT mutant cells; [2]): > 8.00 | pIC50 (Ba/F3 KIT mutant cells; [3]): > 8.00 | pIC50 (Ba/F3 KIT mutant cells; [4]): 7.00 to 8.00 | pIC50 (GIST 430 cells): 7.00 to 8.00

O=C(NCCC1CCOCC1)Nc1ccc(Nc2ncnc3cc(OCCN4CCOCC4)cc(F)c23)cc1
pIC50 (c-KIT kinase (uKIT)): 7.00 to 8.00 | pIC50 (Ba/F3 KIT mutant cells; read-out: AYdup IC50, Ba/F3 KIT AYdup mutant cell proliferation): > 8.00 | pIC50 (Ba/F3 KIT mutant cells; [1]): > 8.00 | pIC50 (Ba/F3 KIT mutant cells; [2]): 7.00 to 8.00 | pIC50 (Ba/F3 KIT mutant cells; [3]): > 8.00 | pIC50 (Ba/F3 KIT mutant cells; [4]): 7.00 to 8.00 | pIC50 (GIST 430 cells): > 8.00

— patent US20240116877A1, “KIT KINASE INHIBITORS AND METHODS OF USE THEREOF” (Deciphera Pharmaceuticals, LLC, priority 2021, published 2024)
